Values of other authors in patent publication US20050227929A1, “Combination therapy comprising a Cox-2 inhibitor and an antineoplastic agent” (priority 2003, published 2005).

System: Hodgkin's lymphoma

B1: Zevalin (conjugate, chains of the INN, looked up)
heavy: QAYLQQSGAELVRPGASVKMSCKASGYTFTSYNMHWVKQTPRQGLEWIGAIYPGNGDTSYNQKFKGKATLTVDKSSSTAYMQLSSLTSEDSAVYFCARVVYYSNSYWYFDVWGTGTTVTVSAPSVYPLAPVCGDTTGSSVTLGCLVKGYFPEPVTLTWNSGSLSSGVHTFPAVLQSDLYTLSSSVTVTSSTWPSQSITCNVAHPASSTKVDKKIEPRGPTIKPCPPCKCPAPNLLGGPSVFIFPPKIKDVLMISLSPIVTCVVVDVSEDDPDVQISWFVNNVEVHTAQTQTHREDYNSTLRVVSALPIQHQDWMSGKEFKCKVNNKDLPAPIERTISKPKGSVRAPQVYVLPPPEEEMTKKQVTLTCMVTDFMPEDIYVEWTNNGKTELNYKNTEPVLDSDGSYFMYSKLRVEKKNWVERNSYSCSVVHEGLHNHHTTKSFSR
light: QIVLSQSPAILSASPGEKVTMTCRASSSVSYMHWYQQKPGSSPKPWIYAPSNLASGVPARFSGSGSGTSYSLTISRVEAEDAATYYCQQWSFNPPTFGAGTKLELKRADAAPTVFIFPPSDEQLKSGTASVVCLLNNFYPREAKVQWKVDNALQSGNSQESVTEQDSKDSTYSLSSTLTLSKADYEKHKVYACEVTHQGLSSPVTKSFN
modifications: tiuxetan chelator, yttrium-90
overall response rate (Hodgkin's lymphoma patients receiving 0.2, 0.3 or 0.4 mCi/kg in combination with rituximab): rate is 82%
overall response rate at the highest dose (Hodgkin's lymphoma patients, highest dose (0.4 mCi/kg) in combination with rituximab): (81% at the
